Source: US20260166039A1 (SCHRÖDINGER, INC., priority 2022, published 2026)

Amino acid sequences for entries named in this document (tags omitted). Residues count along the entry.
UniProt P30291, 299-569 limits assumed: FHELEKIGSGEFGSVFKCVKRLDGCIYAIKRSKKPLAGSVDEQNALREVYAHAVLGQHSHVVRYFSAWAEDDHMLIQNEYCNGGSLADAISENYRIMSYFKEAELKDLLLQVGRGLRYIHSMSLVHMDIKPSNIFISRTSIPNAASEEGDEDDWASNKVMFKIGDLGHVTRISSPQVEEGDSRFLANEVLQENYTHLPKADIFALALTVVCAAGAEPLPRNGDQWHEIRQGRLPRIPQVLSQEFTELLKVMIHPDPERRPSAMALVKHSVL

Target: Wee1 kinase domain (Homo sapiens, UniProt P30291)
Test: Wee1 Kinase Biochemical Assay (ADP-Glo)
Conditions: read-out: WEE1 kinase ADP-Glo IC50, 15 uM ATP
Experimental: Wee1 Kinase Biochemical Assay Protocol
Wee1 kinase domain was purchased from Carna (catalog #05-177). Wee1 kinase activity was determined with Poly(Lys,Tyr 4:1) hydrobromide as a substrate (Sigma-Aldrich) and by measuring ADP production using the ADP-Glo Kinase Assay kit (Promega) following the manufacturer's instructions. The kinase reaction was performed using the following conditions:
Buffer: 40 mM Tris-HCl, 20 mM magnesium chloride, supplemented with 0.1 mg/mL bovine serum albumin and 2 mM DTT. The final reaction mix contained 1 nM Wee1 enzyme, 15 uM ATP, and 2 ng/mL Poly(Lys,Tyr 4:1) hydrobromide substrate. The reaction time was 4 hours at 25° C.
The ADP-Glo signal was measured using the Envision plate reader and the percentage inhibition of kinase activity calculated for each inhibitor tested. Percent inhibition of Wee1 kinase activity was calculated based on the following formula.
[formula] • SSample: the signal of compounds • SHigh Ctrl: the signal of high control (DMSO) • SLow Ctrl: the signal of low control (positive control Wee1 inhibitor at saturating concentration)

IC50: 10 to 100 nM
Compound: CC1(C)C[C@@H]2N(c3cccc(N=S(C)(C)=O)n3)c3nc(Nc4ccc([C@@H]5CCNC5)cc4)ncc3[C@]2(C)CO1
